# ChEMBL document CHEMBL2218924, “A broad activity screen in support of a chemogenomic map for kinase signalling research and drug discovery” (Biochem J, 2013)
# Sequences of proteins named here, by UniProt entry; tags and fusion partners are left off. A change or cut given only in a name is not applied to a line headed by its entry.
# UniProt P49761: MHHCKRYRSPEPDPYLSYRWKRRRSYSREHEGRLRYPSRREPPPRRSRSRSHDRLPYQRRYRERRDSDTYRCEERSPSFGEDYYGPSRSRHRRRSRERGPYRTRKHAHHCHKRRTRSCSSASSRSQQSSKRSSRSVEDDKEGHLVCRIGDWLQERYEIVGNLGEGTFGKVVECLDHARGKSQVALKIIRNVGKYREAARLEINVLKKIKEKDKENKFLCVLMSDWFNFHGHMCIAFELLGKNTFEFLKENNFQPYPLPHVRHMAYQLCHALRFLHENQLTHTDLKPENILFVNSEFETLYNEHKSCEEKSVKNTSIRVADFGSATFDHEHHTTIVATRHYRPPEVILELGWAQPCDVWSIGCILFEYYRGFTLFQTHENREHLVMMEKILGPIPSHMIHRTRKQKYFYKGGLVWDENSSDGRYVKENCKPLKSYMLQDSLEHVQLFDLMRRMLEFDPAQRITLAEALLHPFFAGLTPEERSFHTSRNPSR
# UniProt P49841: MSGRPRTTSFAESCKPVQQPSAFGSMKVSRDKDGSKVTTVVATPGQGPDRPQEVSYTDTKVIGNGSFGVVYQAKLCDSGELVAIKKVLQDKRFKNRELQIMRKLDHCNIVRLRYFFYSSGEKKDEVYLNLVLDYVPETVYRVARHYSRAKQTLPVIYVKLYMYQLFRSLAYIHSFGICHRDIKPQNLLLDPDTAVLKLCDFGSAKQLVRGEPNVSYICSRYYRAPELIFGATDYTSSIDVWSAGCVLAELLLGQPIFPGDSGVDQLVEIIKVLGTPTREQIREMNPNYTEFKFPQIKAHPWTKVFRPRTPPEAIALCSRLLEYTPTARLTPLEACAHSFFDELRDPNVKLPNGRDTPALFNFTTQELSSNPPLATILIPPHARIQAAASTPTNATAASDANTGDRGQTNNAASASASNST
# UniProt Q9H2X6: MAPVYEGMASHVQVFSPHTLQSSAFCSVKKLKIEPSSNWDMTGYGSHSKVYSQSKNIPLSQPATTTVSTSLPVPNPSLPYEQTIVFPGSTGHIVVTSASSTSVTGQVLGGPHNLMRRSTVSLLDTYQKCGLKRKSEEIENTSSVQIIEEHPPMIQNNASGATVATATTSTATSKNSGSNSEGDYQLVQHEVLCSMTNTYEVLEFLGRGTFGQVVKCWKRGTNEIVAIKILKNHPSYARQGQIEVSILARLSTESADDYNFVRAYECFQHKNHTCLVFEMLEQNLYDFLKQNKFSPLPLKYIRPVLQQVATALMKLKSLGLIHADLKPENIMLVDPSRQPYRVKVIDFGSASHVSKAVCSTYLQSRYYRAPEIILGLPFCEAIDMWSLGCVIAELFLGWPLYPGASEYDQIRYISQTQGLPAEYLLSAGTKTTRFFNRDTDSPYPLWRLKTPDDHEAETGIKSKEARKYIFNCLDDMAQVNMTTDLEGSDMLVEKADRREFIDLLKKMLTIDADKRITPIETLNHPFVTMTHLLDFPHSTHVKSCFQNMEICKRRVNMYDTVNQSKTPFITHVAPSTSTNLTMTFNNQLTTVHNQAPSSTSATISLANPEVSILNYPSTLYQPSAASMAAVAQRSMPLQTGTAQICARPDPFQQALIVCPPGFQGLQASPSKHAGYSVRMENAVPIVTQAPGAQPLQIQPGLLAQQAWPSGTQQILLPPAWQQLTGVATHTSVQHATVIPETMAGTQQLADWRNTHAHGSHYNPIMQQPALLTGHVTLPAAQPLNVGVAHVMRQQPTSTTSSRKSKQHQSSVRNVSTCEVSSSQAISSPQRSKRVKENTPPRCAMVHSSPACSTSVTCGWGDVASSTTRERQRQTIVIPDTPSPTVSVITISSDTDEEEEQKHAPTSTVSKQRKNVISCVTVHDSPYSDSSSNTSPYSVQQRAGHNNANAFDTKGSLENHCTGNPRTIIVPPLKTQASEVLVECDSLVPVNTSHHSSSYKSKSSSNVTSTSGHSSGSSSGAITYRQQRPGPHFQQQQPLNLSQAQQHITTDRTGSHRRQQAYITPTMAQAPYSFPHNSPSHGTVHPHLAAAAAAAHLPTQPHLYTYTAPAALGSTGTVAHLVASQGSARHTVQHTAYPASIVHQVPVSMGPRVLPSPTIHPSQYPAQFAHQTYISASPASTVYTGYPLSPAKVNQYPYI
# UniProt P08631: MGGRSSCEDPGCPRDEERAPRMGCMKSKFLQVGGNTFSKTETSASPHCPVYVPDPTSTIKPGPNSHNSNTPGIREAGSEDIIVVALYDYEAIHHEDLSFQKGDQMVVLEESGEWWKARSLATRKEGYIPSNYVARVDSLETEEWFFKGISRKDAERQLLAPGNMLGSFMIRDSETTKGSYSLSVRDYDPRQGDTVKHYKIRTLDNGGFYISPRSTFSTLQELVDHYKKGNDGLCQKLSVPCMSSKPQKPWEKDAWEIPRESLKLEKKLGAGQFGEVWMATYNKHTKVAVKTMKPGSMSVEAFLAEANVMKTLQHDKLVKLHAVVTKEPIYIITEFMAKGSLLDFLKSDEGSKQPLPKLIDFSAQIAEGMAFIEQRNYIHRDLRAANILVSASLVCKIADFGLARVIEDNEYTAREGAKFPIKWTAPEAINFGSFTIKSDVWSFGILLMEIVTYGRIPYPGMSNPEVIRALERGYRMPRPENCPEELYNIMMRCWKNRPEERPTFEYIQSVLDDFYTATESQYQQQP
# UniProt P06239: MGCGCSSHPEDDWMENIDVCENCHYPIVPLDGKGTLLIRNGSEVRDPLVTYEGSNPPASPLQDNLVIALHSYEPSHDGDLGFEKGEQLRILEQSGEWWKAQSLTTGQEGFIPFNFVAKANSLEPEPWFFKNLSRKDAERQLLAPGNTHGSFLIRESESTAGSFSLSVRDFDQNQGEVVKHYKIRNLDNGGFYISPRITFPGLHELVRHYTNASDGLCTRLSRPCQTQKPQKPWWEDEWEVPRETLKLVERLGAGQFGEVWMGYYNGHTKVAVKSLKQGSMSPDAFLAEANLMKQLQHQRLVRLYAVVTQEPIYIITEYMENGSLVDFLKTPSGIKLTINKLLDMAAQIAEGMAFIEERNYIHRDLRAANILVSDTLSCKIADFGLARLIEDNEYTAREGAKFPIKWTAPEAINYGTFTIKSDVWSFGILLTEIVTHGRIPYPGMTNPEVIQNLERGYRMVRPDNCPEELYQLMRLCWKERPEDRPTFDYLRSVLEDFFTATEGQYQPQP
# UniProt Q13043: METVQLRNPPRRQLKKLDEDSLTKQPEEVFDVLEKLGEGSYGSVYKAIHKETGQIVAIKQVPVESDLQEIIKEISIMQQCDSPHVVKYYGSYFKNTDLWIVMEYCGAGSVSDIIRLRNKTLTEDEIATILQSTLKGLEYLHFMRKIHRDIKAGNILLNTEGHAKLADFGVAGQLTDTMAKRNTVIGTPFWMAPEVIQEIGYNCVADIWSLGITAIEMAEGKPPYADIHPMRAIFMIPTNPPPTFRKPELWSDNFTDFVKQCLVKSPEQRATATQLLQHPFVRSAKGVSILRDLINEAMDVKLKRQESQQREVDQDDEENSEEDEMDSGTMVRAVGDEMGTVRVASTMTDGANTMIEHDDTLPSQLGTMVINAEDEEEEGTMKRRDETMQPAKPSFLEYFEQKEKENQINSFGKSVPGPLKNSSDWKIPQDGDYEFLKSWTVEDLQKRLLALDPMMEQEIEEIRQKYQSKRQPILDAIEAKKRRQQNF
# UniProt P51956: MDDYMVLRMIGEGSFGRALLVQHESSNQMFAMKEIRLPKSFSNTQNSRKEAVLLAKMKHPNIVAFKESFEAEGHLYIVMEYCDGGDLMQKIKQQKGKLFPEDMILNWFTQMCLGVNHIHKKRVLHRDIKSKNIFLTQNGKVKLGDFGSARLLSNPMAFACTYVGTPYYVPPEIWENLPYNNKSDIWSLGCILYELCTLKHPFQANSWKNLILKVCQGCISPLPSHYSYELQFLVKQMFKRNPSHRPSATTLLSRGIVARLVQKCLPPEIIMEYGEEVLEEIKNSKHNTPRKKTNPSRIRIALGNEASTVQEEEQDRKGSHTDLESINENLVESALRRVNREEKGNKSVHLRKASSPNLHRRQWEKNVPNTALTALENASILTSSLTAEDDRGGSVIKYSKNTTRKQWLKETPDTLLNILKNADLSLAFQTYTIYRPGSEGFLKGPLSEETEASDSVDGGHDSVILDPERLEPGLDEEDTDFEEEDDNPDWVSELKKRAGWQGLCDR
# UniProt Q9NQU5: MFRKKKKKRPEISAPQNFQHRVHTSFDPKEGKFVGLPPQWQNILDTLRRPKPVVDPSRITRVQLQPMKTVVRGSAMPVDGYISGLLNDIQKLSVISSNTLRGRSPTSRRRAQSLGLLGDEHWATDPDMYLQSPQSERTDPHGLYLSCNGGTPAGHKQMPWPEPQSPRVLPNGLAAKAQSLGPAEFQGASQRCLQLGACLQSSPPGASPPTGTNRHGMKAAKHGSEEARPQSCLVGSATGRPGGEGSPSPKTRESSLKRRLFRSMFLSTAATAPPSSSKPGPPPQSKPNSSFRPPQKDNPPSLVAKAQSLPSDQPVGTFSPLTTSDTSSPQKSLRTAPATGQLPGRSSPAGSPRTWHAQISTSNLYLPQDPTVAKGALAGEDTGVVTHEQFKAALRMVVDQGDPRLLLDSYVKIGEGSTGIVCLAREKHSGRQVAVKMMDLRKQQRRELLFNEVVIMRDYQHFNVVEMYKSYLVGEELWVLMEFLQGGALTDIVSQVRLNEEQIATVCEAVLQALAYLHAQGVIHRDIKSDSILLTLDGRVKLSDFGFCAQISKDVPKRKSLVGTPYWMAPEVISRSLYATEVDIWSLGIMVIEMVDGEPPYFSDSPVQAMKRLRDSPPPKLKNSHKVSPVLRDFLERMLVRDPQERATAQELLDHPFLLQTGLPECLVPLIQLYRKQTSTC
# UniProt P05771, whole entry, looked up: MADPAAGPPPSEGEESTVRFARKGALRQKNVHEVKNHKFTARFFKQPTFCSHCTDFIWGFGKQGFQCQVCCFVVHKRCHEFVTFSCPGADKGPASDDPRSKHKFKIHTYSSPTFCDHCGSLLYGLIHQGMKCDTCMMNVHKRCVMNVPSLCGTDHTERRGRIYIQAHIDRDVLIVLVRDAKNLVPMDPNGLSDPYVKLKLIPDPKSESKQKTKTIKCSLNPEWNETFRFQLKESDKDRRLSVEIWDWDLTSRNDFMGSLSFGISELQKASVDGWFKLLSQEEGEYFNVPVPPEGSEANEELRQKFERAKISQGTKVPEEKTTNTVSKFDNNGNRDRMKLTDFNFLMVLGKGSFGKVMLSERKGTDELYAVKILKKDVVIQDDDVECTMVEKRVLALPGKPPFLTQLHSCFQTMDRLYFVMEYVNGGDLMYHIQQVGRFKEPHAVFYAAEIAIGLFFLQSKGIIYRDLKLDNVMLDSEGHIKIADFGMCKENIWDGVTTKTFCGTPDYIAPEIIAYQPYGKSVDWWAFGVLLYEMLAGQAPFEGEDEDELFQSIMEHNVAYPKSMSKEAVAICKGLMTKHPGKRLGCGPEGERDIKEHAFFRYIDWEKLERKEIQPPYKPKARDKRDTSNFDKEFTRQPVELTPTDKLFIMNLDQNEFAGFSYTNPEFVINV
# UniProt O15264: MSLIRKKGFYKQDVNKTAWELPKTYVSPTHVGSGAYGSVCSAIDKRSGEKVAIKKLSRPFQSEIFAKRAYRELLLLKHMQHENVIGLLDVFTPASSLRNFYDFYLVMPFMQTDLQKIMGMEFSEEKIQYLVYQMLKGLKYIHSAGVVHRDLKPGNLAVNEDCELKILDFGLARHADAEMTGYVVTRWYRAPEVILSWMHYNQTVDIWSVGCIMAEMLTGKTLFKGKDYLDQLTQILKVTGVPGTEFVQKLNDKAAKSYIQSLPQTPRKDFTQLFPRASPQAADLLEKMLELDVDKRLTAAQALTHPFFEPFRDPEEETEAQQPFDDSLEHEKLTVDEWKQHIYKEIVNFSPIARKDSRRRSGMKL
# UniProt Q9NYY3: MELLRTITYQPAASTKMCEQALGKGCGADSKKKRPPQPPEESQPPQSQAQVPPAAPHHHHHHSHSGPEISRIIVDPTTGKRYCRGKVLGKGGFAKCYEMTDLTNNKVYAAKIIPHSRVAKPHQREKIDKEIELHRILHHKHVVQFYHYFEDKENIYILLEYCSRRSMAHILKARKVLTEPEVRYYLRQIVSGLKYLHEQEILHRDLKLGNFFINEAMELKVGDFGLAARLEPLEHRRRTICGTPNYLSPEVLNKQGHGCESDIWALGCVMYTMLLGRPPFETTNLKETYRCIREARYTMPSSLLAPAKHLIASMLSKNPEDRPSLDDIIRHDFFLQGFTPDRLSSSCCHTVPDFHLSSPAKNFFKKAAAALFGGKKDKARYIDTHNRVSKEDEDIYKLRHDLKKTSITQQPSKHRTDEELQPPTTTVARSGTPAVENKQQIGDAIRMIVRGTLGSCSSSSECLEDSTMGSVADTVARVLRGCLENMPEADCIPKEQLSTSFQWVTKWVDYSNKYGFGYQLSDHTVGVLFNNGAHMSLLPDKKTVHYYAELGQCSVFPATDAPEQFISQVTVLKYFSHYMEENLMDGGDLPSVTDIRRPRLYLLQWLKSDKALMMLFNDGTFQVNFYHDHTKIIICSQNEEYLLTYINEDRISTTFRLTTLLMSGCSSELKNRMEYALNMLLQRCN
# For part of these data: Most of the strong results are listed elsewhere, so they are rarer here than in the full data. The rule behind the calls is not given here. This is a selection; strong and weak results do not stand in their true shares.
# Columns and labels:
# [1] = target: Ribosomal protein S6 kinase alpha-5 (Homo sapiens) (UniProt O75582); settings: at 10 µM
# [2] = target: T1, Serine/threonine-protein kinase Nek6 (Homo sapiens) (UniProt Q9HC98); settings: at 1 µM
# T1 sequence (whole entry): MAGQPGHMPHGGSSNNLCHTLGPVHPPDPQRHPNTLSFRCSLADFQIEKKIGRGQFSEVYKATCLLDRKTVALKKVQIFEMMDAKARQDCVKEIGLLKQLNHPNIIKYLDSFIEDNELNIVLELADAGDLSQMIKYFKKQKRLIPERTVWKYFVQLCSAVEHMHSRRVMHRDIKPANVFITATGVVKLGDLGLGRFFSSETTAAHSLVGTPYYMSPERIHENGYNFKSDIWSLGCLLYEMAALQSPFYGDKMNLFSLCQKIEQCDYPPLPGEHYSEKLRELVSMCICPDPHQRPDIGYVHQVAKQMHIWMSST
# [3] = target: Casein kinase I isoform gamma-1 (Homo sapiens) (UniProt Q9HCP0); settings: at 10 µM
# [4] = target: Dual specificity protein kinase CLK3 (Homo sapiens) (UniProt P49761); settings: at 10 µM
# [5] = target: Glycogen synthase kinase-3 beta (Homo sapiens) (UniProt P49841); settings: at 1 µM
# [6] = target: Homeodomain-interacting protein kinase 2 (Homo sapiens) (UniProt Q9H2X6); settings: at 10 µM
# [7] = target: Tyrosine-protein kinase HCK (Homo sapiens) (UniProt P08631); settings: at 1 µM
# [8] = target: Tyrosine-protein kinase Lck (Homo sapiens) (UniProt P06239); settings: at 10 µM
# [9] = target: Serine/threonine-protein kinase 4 (Homo sapiens) (UniProt Q13043); settings: at 10 µM
# [10] = target: Serine/threonine-protein kinase Nek3 (Homo sapiens) (UniProt P51956); settings: at 1 µM;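 note: residual NEK3 kinase activity given as percent of control, assayed in 8 mM MOPS buffer pH 7.0 containing 0.2 mM EDTA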
# [11] = target: Serine/threonine-protein kinase mTOR (Homo sapiens) (UniProt P42345); settings: at 10 µM
# [12] = target: Serine/threonine-protein kinase mTOR (Homo sapiens) (UniProt P42345); settings: at 1 µM
# [13] = target: Serine/threonine-protein kinase PAK 6 (Homo sapiens) (UniProt Q9NQU5); settings: at 1 µM
# [14] = target: cAMP-dependent protein kinase catalytic subunit alpha (Homo sapiens) (UniProt P17612); settings: at 10 µM
# [15] = target: Protein kinase C beta type (Homo sapiens) (UniProt P05771); settings: at 10 µM
# [16] = target: Protein kinase C beta type (Homo sapiens) (UniProt P05771); settings: at 1 µM
# [17] = target: Mitogen-activated protein kinase 13 (Homo sapiens) (UniProt O15264); settings: at 1 µM
# [18] = target: Tyrosine-protein kinase Fer (Homo sapiens) (UniProt P16591); settings: at 1 µM
# [19] = target: Platelet-derived growth factor receptor beta (Homo sapiens) (UniProt P09619); settings: at 1 µM
# [20] = target: Serine/threonine-protein kinase PLK2 (Homo sapiens) (UniProt Q9NYY3); settings: at 1 µM;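 note: residual PLK2 kinase activity expressed as percent of uninhibited control, measured in MOPS buffer at pH 7.0 with EDTA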
smiles,measurement,setting,value
COc1cc2ncnc(Nc3ccc(OCc4ccccc4)cc3)c2cc1OC,residual activity,[1],138%
same,residual activity,[2],inactive: 87%
O=[N+]([O-])/C=C/c1ccc2c(c1)OCO2,residual activity,[3],103%
same,residual activity,[4],132%
same,residual activity,[5],108%
same,residual activity,[6],103%
same,residual activity,[7],107%
same,residual activity,[8],89%
same,residual activity,[9],105%
same,residual activity,[10],114%
same,residual activity,[11],104%
same,residual activity,[12],102%
same,residual activity,[2],inactive: 109%
same,residual activity,[13],105%
same,residual activity,[14],101%
same,residual activity,[15],102%
same,residual activity,[16],102%
O=c1[nH]c2ccccc2n1C1CCN(Cc2ccc(-c3nc4cc5[nH]cnc5cc4nc3-c3ccccc3)cc2)CC1,residual activity,[17],107%
O=C1Nc2ccc3ncsc3c2/C1=C/c1c[nH]cn1,residual activity,[18],97%
same,residual activity,[19],79%
COC(=O)[C@@]1(O)C[C@H]2O[C@]1(C)n1c3ccccc3c3c4c(c5c6ccccc6n2c5c31)C(=O)NC4,residual activity,[20],72%
